Results taken from BindingDB's records for doi:10.1016/j.bmcl.2016.06.017 (University of Pittsburgh, 2016).

Assay: Inhibition of IL6-induced STAT3 in human CAL33 cells

## COc1ccc(C2=Nn3c(nnc3-c3cc(-c4ccc(Cl)cc4)n[nH]3)SC2C)cc1 (stereo unspecified)
  IC50: 5.72 µM
